{
  "source": "patent US20250326791A1",
  "key": {"[1]": {"biological_target": "δ opioid receptor (DOR)", "test": "protein binding radioassay"}, "[2]": {"biological_target": "µ opioid receptor (MOR)", "test": "protein binding radioassay"}},
  "data": [
    {"substance": "D-Ala-D-Leu enkephalin (DADLE) (peptide)", "values": [
      {"measurement": "Kd", "setting": "[1]", "result": 8, "unit": "nM"},
      {"measurement": "Kd", "setting": "[2]", "result": 9, "unit": "nM"}
    ]}
  ]
}
